Structures are written as SMILES. Where a name gives a salt, the structure may show the parent alone.

Amino acid sequences for entries named in this document (tags omitted).
UniProt P10415, whole entry: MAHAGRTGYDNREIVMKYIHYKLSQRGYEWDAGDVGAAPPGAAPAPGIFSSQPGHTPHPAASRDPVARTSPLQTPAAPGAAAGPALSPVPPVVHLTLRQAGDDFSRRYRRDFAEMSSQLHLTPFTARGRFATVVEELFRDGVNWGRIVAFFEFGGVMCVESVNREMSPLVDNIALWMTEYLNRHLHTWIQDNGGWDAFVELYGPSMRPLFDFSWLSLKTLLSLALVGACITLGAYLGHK

In the assay the target is Bcl-2 protein (Homo sapiens (Human), UniProt P10415). The experiment in a line: Inhibition of Bcl-2 by the fluorescence polarisation technique. The class given is binding. To be noted: Bcl-2 inhibition, fluorescence polarisation test; read-out: IC50 (nM) Bcl-2 FP. Here is the method: The fluorescence polarisation tests were carried out on microplates (384 wells). […] After incubation for 2 hours, the fluorescence polarisation is measured.

With `Cn1ccc2ccc(N(C(=O)c3cc(-c4cc5c(cc4C(=O)N4Cc6ccccc6C[C@H]4CN4CCOCC4)OCO5)n4c3CCCCC4)c3ccc(O)cc3)cc21` [Example 84, N-(4-Hydroxyphenyl)-N-(1-methyl-1H-indol-6-yl)-3-{6-[((3S)-3-(4-morpholinylmethyl)-3,4-dihydro-2(1H)-isoquinolinyl)carbonyl]-1,3-benzodioxol-5-yl}-6,7,8,9-tetrahydro-5H-pyrrolo[1,2-a]azepine-1-carboxamide hydrochloride], the IC50 was found to be 18 nM.

The values are drawn from US9603854B2, “Indolizine compounds, a process for their preparation and pharmaceutical compositions containing them” (LES LABORATOIRES SERVIER, priority 2012, dated 2017).
